Source: PubChem (National Center for Advancing Translational Sciences (NCATS))
Compounds with a hit are over-represented: about 2.3% of the library has one in this group of screens.
Mito fusion act – inhibitors of mitochondrial division or activators of mitochondrial fusion; S. cerevisiae fusion-defective mutant growth rescue, CellTiterGlo 48 h; AID 485298; hit rate 0.23% among 320,000; Potency, µM (top dose mostly 46.1 µM), usual class: activators; further: nearly all actives have a fitted effect of over 45% in size
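S. cerevisiae fusion-defective temperature-sensitive mutants (e.g. fzo1-1, mgm1-5) grown 48 h at 37C in YPEG (ethanol/glycerol non-fermentable) medium with 23 nl compound per well; growth rescue read as CellTiterGlo luminescence.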
Nrf2 ARE act – Nrf2 pathway activation | AREc32 ARE-luciferase reporter (MCF7-derived line), luminescence, 24 h | Potency, µM (titrated, usually from 46.1 µM), hits mostly activators | hit rate 0.31% among 410,000 | AID 624171; further: nearly all actives have a fitted effect of over 65% in size
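AREc32_Fluc, 1000 cells/well, OPTI-MEM + 5% FBS, o/n 37 deg C 5% CO2; 23 nL cpd by pin tool, 24 hr; Steady-Glo 30 min RT, luminescence.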
Nrf2 inh – inhibitors of Nrf2 signaling; A549 ARE-Fluc reporter, luciferase luminescence, 18-24 h; Potency, µM (highest dose often 46 µM), actives largely listed as inhibitors; hit rate 2.1% among 360,000; AID 504444; further: nearly all actives have a fitted effect of over 60% in size
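Concentration-response testing used A549 ARE_Fluc cells at 5000 cells/well. Following an 18-24 h compound incubation, viability was read by fluorescence (Ex 405/Em 525) and luciferase output by luminescence.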
miR-21 reporter – miR-21 reporter, rising signal | HeLa miR-21 FLuc reporter, luciferase, 48 h | Potency, µM (highest dose often 38.3 µM) | 340,000 tested, under 10 active | AID 2288; active = well fitted rising curve with a large enough effect; inconclusive = small, poorly fitted or top-dose-only effect; inactive = no such curve, though single readings can be large or run the other way;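 further: miR-21 action dims this reporter so a rising signal means less miR-21 action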
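Compounds were titrated across several concentrations (up to approximately 40 uM) and incubated 48 hours with HeLa miR-21-FLuc reporter cells (miR-21 target sequence downstream of FLuc, endogenous miR-21). Readout was firefly luciferase luminescence after lytic detection reagent.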
GRP78 ERSR act – inducers of ER stress response in human glioma cells | U87-MG GRP78 promoter luciferase reporter, 16 h | Potency, µM, actives largely listed as activators | hit rate 0.02% among 420,000 | AID 602332; further: series mostly up to about 76 µM; nearly all actives have a fitted effect of over 35% in size
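Stably transfected U87-MG human glioma cells carrying a GRP78-based luminescent sensor were seeded at 1000 cells/well, pin-dosed with compounds and incubated 16 h. Luciferase reagent was then added, and end-point luminescence was read after 10 min at room temperature.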
A549 tox – counter-screen for Nrf2 inhibitors: cytotoxicity in A549 cells. hit rate 0.16% among 390,000. A549 ARE-Fluc cells, CellTiter-Fluor viability, 18-24 h. AID 504648. Potency, µM (series often up to 46 µM), most hits filed as inhibitors
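A549 ARE-Fluc cells in 5% FBS OPTI-MEM, 5000 cells/well, rested 2 h then exposed to compounds in concentration-response for 18-24 h at 37 °C. Viability by CellTiter-Fluor fluorescence (Ex 405/Em 525) after 30 min; luciferase luminescence (BugLite, 15 min, RT) read afterwards.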
Each line names hits and unclear results; the compound was inactive in the other large screens. Unless noted, the call rests on the fitted dose curve; in most records, active means well fitted curve in the direction sought with a large enough effect; inconclusive means small, poorly fitted or top-dose-only effect, or another doubt; inactive means no such curve, though single readings can be large; an effect the other way counts as inactive or inconclusive.

COc1ccc(Nc2nc(-c3ccccc3)c3ccccc3n2)cc1	Mito fusion act 25µM
COCCn1c(=O)[nH]c2cc(C(=O)Nc3nnc(C)s3)ccc21	none
C=C(C(=O)c1ccccc1)C(C)CC(=O)c1ccccc1 (stereo not drawn)	Nrf2 ARE act inconclusive, miR-21 reporter inconclusive, A549 tox inconclusive
CCCCN(C(C)=O)c1ccc2c(c1)C1CC2CCN1C(=O)OCc1ccccc1 (stereo not drawn)	Nrf2 inh 23µM (no result: Mito fusion act, miR-21 reporter)
CC1(c2ccccc2)CC(C)(C)N2C(=O)/C(=C3\SC(=S)NC3=O)c3cccc1c32 (stereo not drawn)	none
CS(=O)(=O)Nc1ccc(N2CCN(c3ccc(C(F)(F)F)cn3)CC2)nc1	Nrf2 inh 7.3µM
Nc1cc(Cl)c(N)cc1Cl	none
CCN(C(=O)COC(=O)c1[nH]c(C)c(C(C)=O)c1C)c1c(N)n(Cc2ccccc2)c(=O)[nH]c1=O	Nrf2 inh inconclusive (no result: miR-21 reporter)
O=C(C#Cc1ccccc1)c1ccco1	Nrf2 inh 21µM, miR-21 reporter inconclusive, A549 tox inconclusive
O=C(N/N=C/c1ccccc1)c1ccco1	Nrf2 inh inconclusive
Fc1c(F)c(F)c(N/N=C/c2c[nH]c3ccccc23)c(F)c1F	Nrf2 ARE act 13µM
CCSc1nc(N)c(C#N)c(-c2ccco2)c1C#N	Nrf2 inh inconclusive
COC(=O)CSc1nc(N)c(C#N)c(-c2ccco2)c1C#N	Nrf2 ARE act 14µM (no result: Nrf2 inh)
O=C(NC(=S)Nc1ccc(Oc2ccccc2)cc1)c1ccc(Cl)cc1	Nrf2 inh 26µM
CCNC(=S)Nc1ccc(Oc2ccccc2)cc1	none (no result: Mito fusion act, miR-21 reporter)
COc1ccc(NC(=S)Nc2ccc(Oc3ccccc3)cc2)cc1	Nrf2 inh 23µM
Cc1ccc(C(=O)NC(=S)Nc2ccc(Oc3ccc(Cl)cc3)cc2)cc1	Nrf2 inh inconclusive
Cc1ccc(C)c(S(=O)(=O)C(C#N)c2nc3ccccc3nc2N2CCCC2)c1 (stereo not drawn)	none
Cc1ccc(C)c(S(=O)(=O)C(C#N)c2nc3ccccc3nc2N2CC(C)OC(C)C2)c1 (stereo not drawn)	Nrf2 inh 13µM (no result: A549 tox)
CCCC(C)C(=O)Nc1nc(C)c(-c2csc(Nc3cc(Cl)ccc3C)n2)s1 (stereo not drawn)	Nrf2 inh 23µM
COc1ccc(OC)c(NC(=S)N2c3ccccc3CC2C)c1 (stereo not drawn)	none
COc1ccc(CCNC(=O)c2ccc3nc(-c4ccco4)c(-c4ccco4)nc3c2)cc1OC	Nrf2 inh 23µM
O=C(CCSc1nc(-c2ccco2)cc(C(F)(F)F)n1)Nc1ccc2c(c1)OCO2	none
CCOc1ccc(N2C(=O)C(CC(=O)Nc3ccccc3)N(Cc3ccccn3)C2=S)cc1 (stereo not drawn)	Nrf2 inh 23µM, A549 tox inconclusive
O=C(Nc1ccc(-c2nc3ccccc3o2)cc1)c1ccc(N2CCOCC2)c([N+](=O)[O-])c1	Nrf2 inh 16µM, A549 tox inconclusive
Cn1cc([N+](=O)[O-])c(C(=O)Nc2ccc(-c3nc4ccccc4o3)cc2)n1	Nrf2 ARE act 5µM
N#Cc1ccc(-c2csc(NNC(=O)c3ccccc3)n2)cc1	Nrf2 inh 23µM
N#Cc1ccc(-c2csc(NNC(=O)c3ccc(Br)cc3)n2)cc1	A549 tox inconclusive (no result: Nrf2 inh)
CN1C2C=C(N(CCc3ccccc3)C(=O)c3ccc(Cl)cc3)CC1CC2 (stereo not drawn)	none
CC(C)CC(=O)C(=O)O	none (no result: Mito fusion act, miR-21 reporter)
N#C/C(=N\Nc1ccc(Cl)cc1)C(=O)c1ccccc1	Mito fusion act inconclusive, Nrf2 inh 15µM, A549 tox 16µM
COc1ccc(C(=O)/C(C#N)=N/Nc2ccc([N+](=O)[O-])cc2)cc1	Mito fusion act inconclusive, Nrf2 inh 2.6µM, A549 tox inconclusive
COc1ccc(C(=O)/C(C#N)=N/Nc2ccccc2[N+](=O)[O-])cc1	none
CSc1ccccc1C(=O)N1CCN(c2cccc(Cl)c2)CC1	Nrf2 inh 16µM, A549 tox inconclusive
O=C(Nc1ccc(C(=O)N2CCN(c3ccc(Cl)cc3)CC2)cc1)C1=CSCCO1	Nrf2 inh inconclusive
